In patent US12472218B2, “Seneca valley virus (SVV) cellular receptor targeted oncotherapy” (Memorial Sloan-Kettering Cancer Center, priority 2015, dated 2025):

Test system: H1618 and DMS79 cells
Assay: IFN response activity assay: pre-treatment, SVV-GFP challenge, flow cytometry
Settings: 25 Units/mL IFN pre-treatment 24 h, then SVV-GFP 16 h; both cell lines

B1: IFNβ: exogenous interferon beta used to activate the IFN pathways (protein, UniProt P01574 22-187, looked up)
Interferon beta: MSYNLLGFLQRSSNFQCQKLLWQLNGRLEYCLKDRMNFDIPEEIKQLQQFQKEDAALTIYEMLQNIFAIFRQDSSSTGWNETIVENLLANVYHQINHLKTVLEEKLEKEDFTRGKLMSSLHLKRYYGRILHYLKAKEYSHCAWTIVRVEILRNFYFINRLTGYLRN
**Q.** Which “SVV permissive, or GFP+ cells” value does the source give for B1 here?
**A.** decrease
